# The entries are a selection whose mix differs from that of the whole data set. Results filed as inconclusive are left out. Calls of active or inactive are those of the source. Unless noted, calls come from the whole dose curve; as a rule, active = well fitted curve in the direction sought with a large enough effect; inconclusive = small, poorly fitted or top-dose-only effect, or another doubt; inactive = no such curve, though single readings can be large; an effect the other way counts as inactive or inconclusive.
# By UniProt entry, the sequences of proteins in these tests, tags left out. Where a name states a change or a piece, a line headed by the entry shows the natural chain unless it says otherwise.
# UniProt Q99828: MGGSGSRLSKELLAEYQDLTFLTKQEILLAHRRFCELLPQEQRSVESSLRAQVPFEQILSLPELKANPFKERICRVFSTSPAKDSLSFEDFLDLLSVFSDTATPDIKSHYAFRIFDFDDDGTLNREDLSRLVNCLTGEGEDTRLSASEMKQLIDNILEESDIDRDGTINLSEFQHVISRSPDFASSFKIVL
# UniProt P10635, whole entry, looked up: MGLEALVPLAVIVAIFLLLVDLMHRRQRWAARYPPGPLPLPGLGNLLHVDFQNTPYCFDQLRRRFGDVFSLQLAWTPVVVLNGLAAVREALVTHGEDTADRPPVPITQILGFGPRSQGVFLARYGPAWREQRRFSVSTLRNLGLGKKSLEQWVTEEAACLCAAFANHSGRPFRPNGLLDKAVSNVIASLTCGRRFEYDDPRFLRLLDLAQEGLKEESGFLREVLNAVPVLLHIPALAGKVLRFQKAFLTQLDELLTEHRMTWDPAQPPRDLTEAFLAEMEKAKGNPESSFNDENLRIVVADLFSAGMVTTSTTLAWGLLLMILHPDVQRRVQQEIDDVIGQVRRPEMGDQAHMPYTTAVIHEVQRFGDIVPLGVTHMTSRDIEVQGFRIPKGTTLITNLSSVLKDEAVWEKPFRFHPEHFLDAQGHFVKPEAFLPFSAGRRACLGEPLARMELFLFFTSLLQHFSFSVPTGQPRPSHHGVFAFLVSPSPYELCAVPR
# UniProt P08684, whole entry, looked up: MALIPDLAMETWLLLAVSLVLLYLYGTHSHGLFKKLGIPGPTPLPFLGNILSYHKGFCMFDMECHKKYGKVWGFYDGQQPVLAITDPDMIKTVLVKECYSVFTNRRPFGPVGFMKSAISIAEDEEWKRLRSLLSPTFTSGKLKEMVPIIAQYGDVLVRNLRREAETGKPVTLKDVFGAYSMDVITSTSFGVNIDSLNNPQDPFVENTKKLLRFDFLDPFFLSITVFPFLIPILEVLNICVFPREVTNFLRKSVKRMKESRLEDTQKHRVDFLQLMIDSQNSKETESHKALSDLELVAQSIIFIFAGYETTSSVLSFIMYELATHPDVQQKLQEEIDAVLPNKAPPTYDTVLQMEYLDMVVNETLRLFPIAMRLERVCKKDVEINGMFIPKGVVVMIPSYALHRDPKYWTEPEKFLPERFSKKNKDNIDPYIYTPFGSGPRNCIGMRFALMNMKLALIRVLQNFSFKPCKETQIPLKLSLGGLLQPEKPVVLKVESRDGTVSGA
# UniProt P36969, whole entry, looked up: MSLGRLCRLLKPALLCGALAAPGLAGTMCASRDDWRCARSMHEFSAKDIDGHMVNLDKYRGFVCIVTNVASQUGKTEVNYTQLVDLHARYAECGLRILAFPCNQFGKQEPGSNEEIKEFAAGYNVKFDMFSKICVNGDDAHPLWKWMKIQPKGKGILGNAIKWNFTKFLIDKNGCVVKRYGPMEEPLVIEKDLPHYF
# Assays:
# [1] = qHTS to identify inhibitors of the type 1 interferon - major histocompatibility complex class I in skeletal muscle: primary screen against the NCATS Mechanism Interrogation Plate v5.0 (MIPE) Libary (AID 1347411); settings: iHSKM cells + IFN-b, HiBiT-tagged MHC-I luminescence, 24 h; at 45.8 µM (top of the series);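 note: plate controls were vehicle for no effect and reference inhibitor for full effect; nearly all actives have a fitted effect of over 65% in size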
# [2] = target: Calcium and integrin-binding protein 1 (Homo sapiens) (UniProt Q99828); assay: Primary qHTS for Identification of Calcium Integrin Binding Protein 1 (CIB1) Competitor (AID 1508620); settings: CIB1-GST / FITC-alphaIIb peptide fluorescence polarization; at 114 µM (top of the series) unless noted;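 note: GST tagged CIB1 binding a fluorescein labelled alphaIIb integrin peptide tracer; top concentration of the series differs between compounds; % is set by controls: 0 for no effect and ±100 for the full control effect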
# [3] = target: Cytochrome P450 2D6 (Homo sapiens) (UniProt P10635); assay: Cytochrome P450 family 2 subfamily D member 6 (CYP2D6) small molecule antagonists: luciferase biochemical (cell-free) qHTS assay (AID 1645840; active = well fitted curve in the direction sought with a large enough effect in the repeat runs; an effect the other way counts as inactive or inconclusive; note: % is set by controls: 0 for no effect and ±100 for the full control effect; nearly all actives have a fitted effect of over 55% in size)
# Method in brief: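 P450-Glo luminescent screen: recombinant CYP2D6 enzyme–proluciferin substrate mix preincubated with compound 10 min at room temperature, then NADPH regeneration added for 1 h at room temperature. Detection reagent added for 20 min; luciferin light read as relative luminescence units.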
# [4] = target: Cytochrome P450 3A4 (Homo sapiens) (UniProt P08684); assay: Cytochrome P450 family 3 subfamily A member 4 (CYP3A4) small molecule antagonists: luciferase qHTS assay (AID 1645841; active = well fitted curve in the direction sought with a large enough effect in the repeat runs; an effect the other way counts as inactive or inconclusive; note: nearly all actives have a fitted effect of over 45% in size)
# [5] = target: Phospholipid hydroperoxide glutathione peroxidase GPX4 (Homo sapiens) (UniProt P36969); assay: Primary qHTS Assay for Inhibitors of Recombinant Selenoprotein Glutathione Peroxidase 4 (GPX4) (AID 1845192); settings: recombinant GPX4, GR-coupled NADPH fluorescence, 15 min; activity change, negative = inhibition: at 50 µM (top of the series); note: % is set by controls: 0 for no effect and ±100 for the full control effect; nearly all actives have a fitted effect of over 65% in size
# Method in brief: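 NADPH consumption, followed by fluorescence at 340/450 nm between 0 and 15 min, reports GPX4 activity via coupled glutathione reductase (100 nM). Enzyme 200 nM was pre-exposed to compound 30 min; 0.5 mM cumene hydroperoxide and 1 mM GSH served as substrates.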
# [6] = target: Luciferin 4-monooxygenase (Photinus pyralis) (UniProt P08659); assay: Primary firefly luciferase (FLuc) qHTS assay for identification of artifact compounds. (AID 1845220); settings: purified firefly luciferase, luminescence, 5 min; activity change, negative = inhibition: at 54.1 µM (top of the series);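 note: plate controls were DMSO vehicle for no effect and no enzyme for full effect; nearly all actives have a fitted effect of over 60% in size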
# Method in brief: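 Compounds sat 15 min at room temperature with 10 uM luciferin and 10 uM ATP (pH 7.6 Tris acetate). Firefly luciferase (10 nM final) was then added, and luminescence was read 5 min later. Data normalized to no-enzyme and DMSO controls were Hill-fitted.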
# [7] = Primary fluorescence-based thiol-reactive (MSTI) qHTS assay for identification of artifact compounds. (AID 1845221); settings: MSTI thiol-reactivity probe, 1 h; at 53.8 µM (top of the series);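 note: thiol-reactive compounds lower the probe fluorescence signal; nearly all actives have a fitted effect of over 65% in size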
# Method in brief: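 Compounds were incubated 1 h at room temperature in the dark with the MSTI probe (4 uM) in PBS pH 7.4, 2% DMSO. Signals were normalized between Acetyl-MSTI and MSTI.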
# [8] = system: Nanoluciferase (engineered Oplophorus gracilirostris luciferase); assay: Primary Nanoluciferase (NLuc) qHTS assay for identification of artifact compounds. (AID 1845222); settings: NLuc-conditioned medium, Nano-Glo luminescence, 5 min; at 54.1 µM (top of the series);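 note: 0% = DMSO and -100% = no enzyme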
# Method in brief: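 Luminescence from secreted NLuc (filtered, 1:55-diluted S16 cell medium) read 5 min after Nano-Glo substrate; compounds preincubated 15 min, RT. Hill fits of inhibition normalized to DMSO and no-enzyme.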
# [9] = Primary redox qHTS assay for identification of artifact compounds. (AID 1845223); settings: Amplex Red/HRP redox cycling with DTT, fluorescence; at 53.8 µM (top of the series);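 note: 0% = DMSO and 100% = reference compound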
# Method in brief: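 Amplex Red (25 uM) and HRP (250 mU/mL) in HBSS, with compounds for 15 min, then 250 uM DTT for 30 min, room temperature, dark. Fluorescence 525/598 nm read; normalized to DMSO and 10 uM DA3003; Hill fit.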
# [10] = qHTS drug screen for cell cycle checkpoint inhibitors in PARPi-resistant BRCA-mutant ovarian cancer cell lines. (AID 1963452; calls by dose curve); settings: PEO1/OlaR viability, CellTiter-Glo luminescence, 96 h; active compounds read low
# Method in brief: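 PEO1, PEO4 and PEO1/OlaR ovarian cancer cells, 600 per well, exposed 96 h at 37C to a dilution series. Viability read by CellTiter-Glo luminescence, normalized to DMSO and empty wells; activity summarized as Z-AUC.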
# CRL-7250 = normal cell line; assay: Cytotoxic Profiling of Annotated Libraries Using Quantitative High-Throughput Screening (AID 1296008); settings: Five cell lines viability, CellTiter-Glo ATP luminescence, 48-72 h; active compounds read low; note: nearly all actives have a fitted effect of over 60% in size; note: potency is the fitted concentration of half-maximal effect; for max response: % is set by controls: 0 for no effect and ±100 for the full control effect
# HEK293 = assay: as above; settings: Five cell lines viability, CellTiter-Glo ATP luminescence, 48-72 h; max response: active compounds read low
# HaCat = assay: as above; settings: Five cell lines viability, CellTiter-Glo ATP luminescence, 48-72 h; active compounds read low
# KB-3-1 = assay: as above; settings: Five cell lines viability, CellTiter-Glo ATP luminescence, 48-72 h, active compounds read low
# NIH3T3 = assay: as above; settings: Five cell lines viability, CellTiter-Glo ATP luminescence, 48-72 h; active compounds read low
# C33A = assay: Primary qHTS to identify gynecologic anti-cancer compounds using libraries of approved drugs and bioactive compounds (AID 1345084); settings: Gynecologic cancer cell panel viability, ATPlite luminescence, 48 h; at 57.5 µM (top of the series) unless noted; note: % is set by controls: 0 for no effect and ±100 for the full control effect; nearly all actives have a fitted effect of over 55% in size
# Method in brief: (§1)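 Luminescence from the ATPlite ATP-monitoring reagent indicates viable cell number; lower signal means cytotoxicity. Cells received compound 16 h after seeding and were exposed for 48 h across five concentrations.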
# CAOV3 = assay: as above; settings: Gynecologic cancer cell panel viability, ATPlite luminescence, 48 h; at 57.5 µM (top of the series) unless noted
# Method in brief: as §1
# CASKI = assay: as above; settings: Gynecologic cancer cell panel viability, ATPlite luminescence, 48 h; at 57.5 µM (top of the series) unless noted
# Method in brief: as §1
# HeLa = assay: as above; settings: Gynecologic cancer cell panel viability, ATPlite luminescence, 48 h; at 57.5 µM (top of the series) unless noted
# Method in brief: as §1
# OV90 = assay: as above; settings: Gynecologic cancer cell panel viability, ATPlite luminescence, 48 h; at 57.5 µM (top of the series) unless noted
# Method in brief: as §1
# SKOV3 = assay: as above; settings: Gynecologic cancer cell panel viability, ATPlite luminescence, 48 h; at 57.5 µM (top of the series) unless noted
# Method in brief: as §1
# Tov-21-G = assay: as above; settings: Gynecologic cancer cell panel viability, ATPlite luminescence, 48 h; at 57.5 µM (top of the series) unless noted
# Method in brief: as §1
# Tov112D = assay: as above; settings: Gynecologic cancer cell panel viability, ATPlite luminescence, 48 h; at 57.5 µM (top of the series) unless noted
# Method in brief: as §1
compound,measurement,setting,value
CN(C)C1(c2ccccc2)CCC2(CC1)OCCc1c2[nH]c2ccc(F)cc12 (stereo not drawn),"activity change, negative = inhibition",[1],inactive: 18.6%
same,"activity change, negative = inhibition",[2],inactive: -4.57%
same,Potency,[3],inactive
same,Potency,[4],inactive
same,"activity change, negative = inhibition",[5],inactive: -1.23%
same,"activity change, negative = inhibition",[6],inactive: -7.01%
same,"activity change, negative = thiol reactive",[7],inactive: -7.53%
same,"activity, negative = inhibition",[8],inactive: -6.59%
same,redox activity (% of DA3003),[9],inactive: -0.504%
same,Z-AUC,[10],inactive: 0.158
same,max response,CRL-7250,inactive: 1.33%
same,Potency,HEK293,active: 411 nM
same,max response,HaCat,inactive: -13.1%
same,max response,KB-3-1,inactive: -30.5%
same,max response,NIH3T3,inactive: -4.8%
same,"activity change, negative = cytotoxicity",C33A,inactive: 0.38%
same,"activity change, negative = cytotoxicity",CAOV3,inactive: 24.4%
same,"activity change, negative = cytotoxicity",CASKI,inactive: -23.2%
same,"activity change, negative = cytotoxicity",HeLa,inactive: -27.7%
same,"activity change, negative = cytotoxicity",OV90,inactive: -13.6%
same,"activity change, negative = cytotoxicity",SKOV3,inactive: 0%
same,"activity change, negative = cytotoxicity",Tov-21-G,inactive: 4.79%
same,"activity change, negative = cytotoxicity",Tov112D,inactive: -28.8%

# From PubChem BioAssay (NCATS)
